Assay results reported in patent US20240189287A1, “PERIPHERALLY RESTRICTED CB1 RECEPTOR BLOCKERS AND USES THEREOF” (BIONANOSIM (BNS) LTD, priority 2021, published 2024).

System: MDR1-MDCKII cells
Assay: MDR1-MDCK II cell permeation assay (bi-directional permeability, P-gp efflux)
Format: in vitro ADME
Details: 2 μM, A to B, 2.5 hours

## CS(=O)(=O)CC(=O)NC1CCCOc2c1nn(-c1ccccc1Cl)c2-c1ccc(Cl)cc1 (stereo not shown)
  MDR1 Papp A:B (×10^−6 cm/s): 8.86 ×10^−6 cm/s
